Results from PubChem BioAssay AID748 (Sanford-Burnham Center for Chemical Genomics, 2007).
The list shows a part of the results, in another mix than the full data. Potency and affinity values are given separately. The source made the active and inactive calls.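 How the source made its calls: active means displacement above 50% at 20 µM plus a fluorescence interference ratio under 1.5; inactive means the rest.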

These molecules were tested against Bcl-2-like protein 10 (Homo sapiens) (UniProt Q9HD36) (assay: Bcl-B/TR3 peptide binding disruption – biochemical, fluorescence polarization, FITC-TR3 peptide, selectivity assay for Bfl-1 inhibitor project, primary screen (AID 748;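 further: plate controls were wells without compound for no effect and wells lacking Bcl-B protein for full effect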)). Conditions: FP displacement of FITC-TR3 peptide from Bcl-B; at 20 µM; stronger effect = higher value.

Question: With `CC(C)CC(=O)NC(Sc1ccc(Cl)cc1)C(Cl)(Cl)Cl` (stereo not given) as the molecule, how does the displacement read?
Answer: The displacement was inactive: -12%.

Question: How did the displacement turn out when `Oc1ccccc1CNc1ccccn1` was run?
Answer: Its displacement is inactive: -3.9%.

Question: Which displacement does the source give for `Cc1c2non([O-])c-2c(C)[n+](=O)[n+]1[O-]` here?
Answer: Its displacement is inactive: -12.5%.

Question: For `CCOP(=O)(Nc1ccccc1)OCC`, which displacement is on record?
Answer: The displacement was inactive: 4.2%.

Question: `CC1CCN(C(=O)Oc2c(Cl)cc(Cl)c3cccnc23)CC1` was tested. Which displacement did it give?
Answer: Its displacement is inactive: -9.5%.

Question: How did the displacement turn out when `O=[N+]([O-])c1cccc2n[nH]nc12` was run?
Answer: The displacement was inactive: 6.6%.

Question: With `CC(=O)N1C2C3N(C(C)=O)C1C1N(C(C)=O)C(C(N1C(C)=O)N3C(C)=O)N2C(C)=O` as the molecule, how does the displacement read?
Answer: Its displacement is inactive: 0.1%.

Question: `CCc1nc2c(n1)c1c(non1O)c1c2no[n+]1[O-]` was tested. Which displacement did it give?
Answer: The displacement was inactive: -0.9%.

Question: Which displacement does the source give for `c1nnnn1CCn1cnnn1` here?
Answer: Its displacement is inactive: 0.4%.

Question: Which displacement does the source give for `O=P(Nc1nccs1)(c1ccccc1)c1ccccc1` here?
Answer: Its displacement is inactive: -0.5%.

Question: How did the displacement turn out when `O=C(OC1CN2CCC1CC2)c1cccc(Cl)c1` (stereo not given) was run?
Answer: Its displacement is inactive: -2.6%.

Question: For `COC(=O)c1cc2c(s1)N=C(c1ccccc1)N(C)P2(=O)N1CCOCC1` (stereo not given), which displacement is on record?
Answer: The displacement was inactive: 0%.

Question: For `CCC(=O)N1C2C3N(C(=O)CC)C1C1N(C(=O)CC)C(C(N1C(=O)CC)N3C(=O)CC)N2C(=O)CC`, which displacement is on record?
Answer: Its displacement is inactive: 3.5%.

Question: For `CCOC(=O)NC(Sc1ccccc1)C(Cl)(Cl)Cl` (stereo not given), which displacement is on record?
Answer: Its displacement is inactive: -6.8%.

Question: How did the displacement turn out when `O=P1(Nc2nc3ccc(Cl)cc3s2)COc2ccccc2O1` (stereo not given) was run?
Answer: Its displacement is inactive: 12.7%.

Question: For `Cc1cccc(OCC(=O)OC2CN3CCC2CC3)c1` (stereo not given), which displacement is on record?
Answer: The displacement was inactive: -3.8%.

Question: Which displacement does the source give for `O=[N+]([O-])c1ccc2c(c1)nnn2O` here?
Answer: The displacement was inactive: -1.2%.

Question: For `CCOP1(=S)c2c(C)nn(CCC#N)c2N=C(c2ccc(F)cc2)N1C` (stereo not given), which displacement is on record?
Answer: The displacement was inactive: -1.6%.

Question: With `CCOP1(=S)c2c(C)nn(CCC#N)c2N=C(c2ccccc2F)N1C` (stereo not given) as the molecule, how does the displacement read?
Answer: The displacement was inactive: -3.7%.

Question: With `O=P(Nc1nccs1)(c1ccccc1)c1nc2ccccc2s1` (stereo not given) as the molecule, how does the displacement read?
Answer: The displacement was inactive: 0%.

Question: Which displacement does the source give for `Cc1ccc(OCC(=O)OC2CN3CCC2CC3)cc1` (stereo not given) here?
Answer: The displacement was inactive: -3.6%.

Question: Which displacement does the source give for `O=P1(Nc2ccc(Br)cn2)COc2ccccc2OC1` here?
Answer: Its displacement is inactive: 0.3%.

Question: With `O=P1(Nc2ncccn2)COc2ccccc2OC1` as the molecule, how does the displacement read?
Answer: The displacement was inactive: -2.5%.

Question: With `Cc1nn(-c2ccccc2)c2c1P(=O)(N1CCOCC1)N(C)C(c1ccccc1)=N2` (stereo not given) as the molecule, how does the displacement read?
Answer: The displacement was inactive: -12%.

Question: For `Clc1n[nH]nc1-c1nn[nH][15n]1`, which displacement is on record?
Answer: The displacement was inactive: 9.8%.

Question: With `O=P1(Nc2ccccn2)COc2ccccc2OC1` as the molecule, how does the displacement read?
Answer: The displacement was inactive: -2.4%.

Question: Which displacement does the source give for `O=C(COc1ccccc1)OC1CN2CCC1CC2` (stereo not given) here?
Answer: Its displacement is inactive: -2.2%.

Question: How did the displacement turn out when `COP1(=S)c2c(C)nn(CCC#N)c2N=C(c2ccc(F)cc2)N1C` (stereo not given) was run?
Answer: The displacement was inactive: -7.4%.

Question: `CCN(CC)C(=S)SC(NC=O)C(Cl)(Cl)Cl` (stereo not given) was tested. Which displacement did it give?
Answer: The displacement was inactive: -10.8%.

Question: For `O=C(OC1CN2CCC1CC2)C12CC3CC(CC(C3)C1)C2` (stereo not given), which displacement is on record?
Answer: The displacement was inactive: -5.5%.
